This is an account of results in patent US9422239B1, “Dual PPAR-δ PPAR-γ agonists” (Auburn University, priority 2013, dated 2016).

The series can be described thus: Biodistribution by LC-Mass Spectral analysis. The conditions noted are these: mice, oral, 4 hours.

Take `CN(CCOc1ccc(CC2SC(=O)NC2=O)cc1)c1ccccn1` (stereo not shown) [Rosiglitazone, rosiglitazone, reference compound]: the “Detection in the brain (crosses the blood brain barrier)” value is recorded as “not detected”.
